Test results as given in patent publication US20250066831.

Test system: (V/A)80 elastin-like polypeptide fused to CVLL

## geranylgeranyl transferase type I (GGTase-I) from Rattus norvegicus, heterodimer of alpha and beta subunits
  cumulative yield of farnesylated protein relative to FTase: 2-3×the amount produced by the canonical enzyme (FTase)
